Assay: In vivo tolerability (body weight, survival, organ H&E)
Conditions: 6d and OXA 5 mg kg^−1, GLA 10 mg kg^−1, i.p. every two days; OXA after nine days
Experimental: All mice were 6–8 weeks old males and procured from Hangzhou Medical College, located in Hangzhou, China. […] 2 × 10^6 Hepa1‐6 cells in 100 µL DMEM were subcutaneously seeded in underarms of C57BL/6 mice. […] Meanwhile, the mice weights and tumor volume were recorded, and the calculation formula of tumor volume was Volume = Width^2 × Length/2. After 13 days, all mice were sacrificed for collection of tumors, hearts, livers, spleens, lungs and kidneys. Collagenase IV (1 mg mL^−1) and DNase I (1 µg mL^−1) were applied to digest a part of the tumor tissue into cell suspension, and lysis buffer was used to remove red blood cells. The prepared cells above were stained with antibodies (anti‐CD3e‐FITC, and anti‐CD8a‐PE; anti‐CD11c‐APC, anti‐CD80‐PE, and anti‐CD86‐FITC; anti‐CD45‐Percp, anti‐CD11b‐APC, and anti‐Ly‐6G/Ly‐6C(Gr‐1)‐FITC; anti‐CD11b‐APC, anti‐CD206‐PE, and CD86‐FITC). CD3^+CD8^+ T cells, CD80^+CD86^+ DCs, CD11b^+Gr‐1^+ MDSCs, CD206^−CD86^+ M1‐type macrophages and CD206^+CD86^− M2‐type macrophages were analyzed by flow cytometry. Then, another part of tumor tissues were fixed with 4% paraformaldehyde, embedded in paraffin, cut into slices and stained with antibodies for immunofluorescence and immunohistochemistry analysis. H&E stain assays were applied for all tissue samples.

O=C1[O][Pt]2([NH][C@@H]3CCCC[C@H]3[NH]2)[O]C1=O [OXA, oxaliplatin]
effect on mice body weight: decrease in body weight

Reference: publication PMC12591170, “Glabridin‐Gold(I) Complex as a Novel Immunomodulatory Agent Targeting TrxR and MAPK Pathways for Synergistic Enhancement of Antitumor Immunity” (Advanced Science, 2025)
